Molecular target: human autotaxin (ATX) (Homo sapiens (Human), UniProt Q13822)
Assay: Human Autotaxin Assay
Assay type: biochemical
Conditions: concentrated conditioned media from Hep3B cells; LPC substrate, choline release
Procedure: ATX activity is assayed in concentrated conditioned media from Hep3B human hepatocellular carcinoma cells by measuring the amount of choline released from the substrate, lysophosphatidylcholine (LPC) as it is cleaved to LPA. Conditioned media is collected from confluent Hep3B cells and concentrated 20-fold using Centriprep-30 filter devices (Millipore). To assay for autotaxin inhibition, 10-20 μL of the concentrated conditioned media is incubated with 2.5 μL of a test compound in DMSO and 72.5-82.5 μL lyso-PLD buffer (100 mM Tris pH 9, 500 mM NaCl, 5 mM MgCl2, 5 mM CaCl2, 0.05% Triton X-100 in the presence or absence of 0.2% fatty-acid-free human serum albumin) for 15 min at 37° C. After the 15 min incubation, 5 uL of 2 mM LPC (14:0; Avanti Polar Lipids Cat#855575C) diluted in lyso-PLD buffer is added for a final concentration of 100 uM and the incubation continues for 1.5-3 hours at 37° C. 100 μL of a color mix containing 4.5 mM 4-aminoantipyrine, 2.7 mM N-ethyl-N-(2-hydroxy-3-sulfopropyl)-m-toluidine, 21 units/ml horseradish peroxidase and 3 units/mL choline oxidase in 50 mM Tris, pH 8, 4.5 mM MgCl2 is added and the incubation continued for 15 minutes at room temperature before reading the absorbance at 555 nm.

- IC50: ≤ 500 nM
Compound: Cc1c(Sc2cccc(C(=O)O)c2F)c2ccc(Cl)c(F)c2n1CC(=O)N1CC[C@@](O)(C(F)(F)F)C1 (single isomer, unassigned; enantiomer a) [Compound 2-58]

— patent US9850203B2, “Autotaxin inhibitor compounds” (PharmAkea, Inc., priority 2013, dated 2017)
